In patent US20170037088A1 one finds EC50, real-time calcium mobilization (FLIPR), EC50, real-time calcium mobilization (FLIPR); exendin-4 from Anaspec and EC50, real-time calcium mobilization (FLIPR); exendin-4 from Tocris data, which are given here for 2 substances.

This assay has as its target GLP-1 receptor (UniProt P43220). As to the kind of experiment: cell-based or functional assay.

exendin-4-Y576: the EC50, real-time calcium mobilization (FLIPR) was found to be 0.098 nM.
As for native exendin-4 (peptide), the EC50, real-time calcium mobilization (FLIPR); exendin-4 from Anaspec worked out at 0.075 nM and the EC50, real-time calcium mobilization (FLIPR); exendin-4 from Tocris turned out to be 0.11 nM.
